Tested on: KPL-3C xenograft in BALB/c nude mice
Experiment: KPL-3C orthotopic xenograft tumour growth
Type: in vivo, mouse
Details: daily 6 μg per day E2, KPL-3C

C[C@]12CC[C@@H]3c4ccc(O)cc4CC[C@H]3[C@@H]1CC[C@@H]2O [E2, 17-estradiol]
E2-induced tumour growth by E2 alone: induced time-dependent growth of KPL-3C and MCF-7 tumours
